Measured values published in paper PMC3931418 (Nature, 2014).

Sequences of proteins named here, by UniProt entry; tags and fusion partners are left off. Residues count along the entry.
UniProt P41143, 36-338 P37S: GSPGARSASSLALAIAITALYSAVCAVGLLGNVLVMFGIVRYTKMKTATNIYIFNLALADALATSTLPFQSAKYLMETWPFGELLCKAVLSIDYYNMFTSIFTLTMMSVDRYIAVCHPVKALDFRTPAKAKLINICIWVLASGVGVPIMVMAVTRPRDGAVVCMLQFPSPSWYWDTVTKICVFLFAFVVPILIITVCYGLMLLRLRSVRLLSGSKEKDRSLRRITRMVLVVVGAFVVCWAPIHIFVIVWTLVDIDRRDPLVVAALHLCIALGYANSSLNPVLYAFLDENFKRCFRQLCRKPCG

Target: BRIL-δOR(ΔN/ΔC) (Sf9) (Homo sapiens, UniProt P41143, P37S)
Format: binding

Substance: DADLE
- effect of NaCl on binding affinity: reduced the affinity
